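In this assay, cells in 96-well plates receive the compound at five concentrations for 48 hours. Endpoints are linearly interpolated between the surrounding concentrations. GI50 is the concentration that inhibits growth by half. TGI marks complete inhibition of growth.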
Assays:
Test in all cases: DTP human tumour cell line panel, 48 h
SNB-19 CNS = system: SNB-19 CNS
M14 melanoma = system: M14 melanoma
SNB-75 CNS = system: SNB-75 CNS
786-0 renal = system: 786-0 renal
NCI-H460 lung = system: NCI-H460 lung
RXF 393 renal = system: RXF 393 renal
RPMI-8226 leukemia = system: RPMI-8226 leukemia
HCT-116 colon = system: HCT-116 colon
CAKI-1 renal = system: CAKI-1 renal
BT-549 breast = system: BT-549 breast
IGROV1 ovarian = system: IGROV1 ovarian
HT29 colon = system: HT29 colon
COLO 205 colon = system: COLO 205 colon
MDA-MB-231 breast = system: MDA-MB-231 breast
EKVX NSCLC = system: EKVX NSCLC
SK-MEL-28 melanoma = system: SK-MEL-28 melanoma
OVCAR-8 ovarian = system: OVCAR-8 ovarian
SK-MEL-5 melanoma = system: SK-MEL-5 melanoma
NCI-H322M lung = system: NCI-H322M lung
A498 renal = system: A498 renal
SR leukemia = system: SR leukemia
HCT-15 colon = system: HCT-15 colon
MCF7 breast = system: MCF7 breast
PC-3 prostate = system: PC-3 prostate
UACC-62 melanoma = system: UACC-62 melanoma
SK-OV-3 ovarian = system: SK-OV-3 ovarian
UO-31 renal = system: UO-31 renal
MOLT-4 leukemia = system: MOLT-4 leukemia
NCI-H522 lung = system: NCI-H522 lung
SF-295 CNS = system: SF-295 CNS
OVCAR-3 ovarian = system: OVCAR-3 ovarian
OVCAR-4 ovarian = system: OVCAR-4 ovarian
SW-620 colon = system: SW-620 colon
MALME-3M melanoma = system: MALME-3M melanoma
CCRF-CEM leukemia = system: CCRF-CEM leukemia
NCI-H226 lung = system: NCI-H226 lung
SF-539 CNS = system: SF-539 CNS
HOP-92 NSCLC = system: HOP-92 NSCLC
OVCAR-5 ovarian = system: OVCAR-5 ovarian
TK-10 renal = system: TK-10 renal
SN12C renal = system: SN12C renal
MDA-N = system: MDA-N
UACC-257 melanoma = system: UACC-257 melanoma
NCI/ADR-RES ovarian = system: NCI/ADR-RES ovarian
T-47D breast = system: T-47D breast
A549 NSCLC = system: A549 NSCLC
NCI-H23 lung = system: NCI-H23 lung
HL-60(TB) leukemia = system: HL-60(TB) leukemia
SF-268 CNS = system: SF-268 CNS
HS 578T breast = system: HS 578T breast
HOP-62 NSCLC = system: HOP-62 NSCLC
K-562 leukemia = system: K-562 leukemia
U251 CNS = system: U251 CNS
LOX IMVI melanoma = system: LOX IMVI melanoma
ACHN renal = system: ACHN renal
HCC-2998 colon = system: HCC-2998 colon
MDA-MB-435 = system: MDA-MB-435
KM12 colon = system: KM12 colon
SK-MEL-2 melanoma = system: SK-MEL-2 melanoma
DU-145 prostate = system: DU-145 prostate

SMILES: C[As](C)Sc1ccccc1C(=O)O
- GI50 (SNB-19 CNS): 1140 nM
- TGI (SNB-19 CNS): 6640 nM
- GI50 (M14 melanoma): 295 nM
- TGI (M14 melanoma): 1100 nM
- GI50 (SNB-75 CNS): 661 nM
- TGI (SNB-75 CNS): 1560 nM
- GI50 (786-0 renal): 336 nM
- TGI (786-0 renal): 1260 nM
- GI50 (NCI-H460 lung): 2790 nM
- TGI (NCI-H460 lung): 11300 nM
- GI50 (RXF 393 renal): 233 nM
- TGI (RXF 393 renal): 1390 nM
- GI50 (RPMI-8226 leukemia): 11500 nM
- TGI (RPMI-8226 leukemia): 31500 nM
- GI50 (HCT-116 colon): 332 nM
- TGI (HCT-116 colon): 1480 nM
- GI50 (CAKI-1 renal): 75.6 nM
- TGI (CAKI-1 renal): 472 nM
- GI50 (BT-549 breast): 569 nM
- TGI (BT-549 breast): 1840 nM
- GI50 (IGROV1 ovarian): 252 nM
- TGI (IGROV1 ovarian): 688 nM
- GI50 (HT29 colon): 253 nM
- TGI (HT29 colon): 922 nM
- GI50 (COLO 205 colon): 420 nM
- TGI (COLO 205 colon): 1700 nM
- GI50 (MDA-MB-231 breast): 456 nM
- TGI (MDA-MB-231 breast): 6420 nM
- GI50 (EKVX NSCLC): 485 nM
- TGI (EKVX NSCLC): 3950 nM
- GI50 (SK-MEL-28 melanoma): 135 nM
- TGI (SK-MEL-28 melanoma): 497 nM
- GI50 (OVCAR-8 ovarian): 289 nM
- TGI (OVCAR-8 ovarian): 1130 nM
- GI50 (SK-MEL-5 melanoma): 282 nM
- TGI (SK-MEL-5 melanoma): 840 nM
- GI50 (NCI-H322M lung): 2190 nM
- TGI (NCI-H322M lung): 7430 nM
- GI50 (A498 renal): 320 nM
- TGI (A498 renal): 1940 nM
- GI50 (SR leukemia): 86.1 nM
- TGI (SR leukemia): 1010 nM
- GI50 (HCT-15 colon): 96.6 nM
- TGI (HCT-15 colon): 1240 nM
- GI50 (MCF7 breast): 225 nM
- TGI (MCF7 breast): 823 nM
- GI50 (PC-3 prostate): 3760 nM
- TGI (PC-3 prostate): > 100000 nM
- GI50 (UACC-62 melanoma): 278 nM
- TGI (UACC-62 melanoma): 1520 nM
- GI50 (SK-OV-3 ovarian): 1980 nM
- TGI (SK-OV-3 ovarian): 11400 nM
- GI50 (UO-31 renal): 93.1 nM
- TGI (UO-31 renal): 557 nM
- GI50 (MOLT-4 leukemia): 136 nM
- TGI (MOLT-4 leukemia): 32300 nM
- GI50 (NCI-H522 lung): 31 nM
- TGI (NCI-H522 lung): 111 nM
- GI50 (SF-295 CNS): 2610 nM
- TGI (SF-295 CNS): 8800 nM
- GI50 (OVCAR-3 ovarian): 181 nM
- TGI (OVCAR-3 ovarian): 753 nM
- GI50 (OVCAR-4 ovarian): 314 nM
- TGI (OVCAR-4 ovarian): 2030 nM
- GI50 (SW-620 colon): 439 nM
- TGI (SW-620 colon): 6450 nM
- GI50 (MALME-3M melanoma): 70.9 nM
- TGI (MALME-3M melanoma): 305 nM
- GI50 (CCRF-CEM leukemia): 2780 nM
- TGI (CCRF-CEM leukemia): 14500 nM
- GI50 (NCI-H226 lung): 280 nM
- TGI (NCI-H226 lung): 1210 nM
- GI50 (SF-539 CNS): 52 nM
- TGI (SF-539 CNS): 228 nM
- GI50 (HOP-92 NSCLC): 2900 nM
- TGI (HOP-92 NSCLC): 13900 nM
- GI50 (OVCAR-5 ovarian): 246 nM
- TGI (OVCAR-5 ovarian): 1640 nM
- GI50 (TK-10 renal): 116 nM
- TGI (TK-10 renal): 665 nM
- GI50 (SN12C renal): 319 nM
- TGI (SN12C renal): 1340 nM
- GI50 (MDA-N): 119 nM
- TGI (MDA-N): 1320 nM
- GI50 (UACC-257 melanoma): 366 nM
- TGI (UACC-257 melanoma): 2860 nM
- GI50 (NCI/ADR-RES ovarian): 233 nM
- TGI (NCI/ADR-RES ovarian): 673 nM
- GI50 (T-47D breast): 46 nM
- TGI (T-47D breast): 1790 nM
- GI50 (A549 NSCLC): 670 nM
- TGI (A549 NSCLC): 3120 nM
- GI50 (NCI-H23 lung): 182 nM
- TGI (NCI-H23 lung): 2590 nM
- GI50 (HL-60(TB) leukemia): 151 nM
- TGI (HL-60(TB) leukemia): 2490 nM
- GI50 (SF-268 CNS): 511 nM
- TGI (SF-268 CNS): 2830 nM
- GI50 (HS 578T breast): 267 nM
- TGI (HS 578T breast): 948 nM
- GI50 (HOP-62 NSCLC): 1080 nM
- TGI (HOP-62 NSCLC): 4870 nM
- GI50 (K-562 leukemia): 358 nM
- TGI (K-562 leukemia): 42800 nM
- GI50 (U251 CNS): 482 nM
- TGI (U251 CNS): 2230 nM
- GI50 (LOX IMVI melanoma): 227 nM
- TGI (LOX IMVI melanoma): 1020 nM
- GI50 (ACHN renal): 210 nM
- TGI (ACHN renal): 1240 nM
- GI50 (HCC-2998 colon): 653 nM
- TGI (HCC-2998 colon): 2290 nM
- GI50 (MDA-MB-435): 89.4 nM
- TGI (MDA-MB-435): 358 nM
- GI50 (KM12 colon): 984 nM
- TGI (KM12 colon): 11300 nM
- GI50 (SK-MEL-2 melanoma): 175 nM
- TGI (SK-MEL-2 melanoma): 516 nM
- GI50 (DU-145 prostate): 230 nM
- TGI (DU-145 prostate): 710 nM

From PubChem BioAssay (NCI)
